The values that follow are results of earlier work, collected in PMC9506049, “Oxidation of p-[^125I]Iodobenzoic Acid and p-[^211At]Astatobenzoic Acid Derivatives and Evaluation In Vivo” (International Journal of Molecular Sciences, 2022).

The conditions of the data set: literature report; cited from earlier work.

For the compound `O=C(O)c1ccc(I(=O)=O)cc1`, the In vitro stability result was “stable in vitro”.
